# Ab-95 light chain CDR variants: yeast mating affinities

Antigen: PDVDLGDISGINAS, a 14-residue peptide of the SARS-CoV-2 spike HR2 region.

The variants keep the heavy chain, the linker and the frameworks of Ab-95 (scFv order VH, a 15-residue (Gly4Ser)3 linker, VL).
VH: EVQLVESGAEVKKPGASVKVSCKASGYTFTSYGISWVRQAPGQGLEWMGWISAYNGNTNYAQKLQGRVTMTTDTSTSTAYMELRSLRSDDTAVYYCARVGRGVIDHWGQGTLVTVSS
VL: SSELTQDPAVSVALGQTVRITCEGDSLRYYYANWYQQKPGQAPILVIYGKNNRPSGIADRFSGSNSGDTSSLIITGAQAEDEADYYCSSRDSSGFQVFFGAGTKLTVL

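The library (AAYL52) carries one to three amino acid substitutions per variant, with no insertions or deletions. In AlphaSeq, yeast of one mating type display the scFv and yeast of the other type display the target. The frequency of each diploid, read from paired DNA barcodes, reflects how well the two displayed proteins bind. Scores were corrected for input abundance and mapped to Kd with protein pairs of known affinity run in the same pool. Each pool was mated in three replicate cultures.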

Substitutions are numbered in sequence along the VL above, starting at 1 (not Kabat). Affinities are written as log10 Kd with Kd in nM; a lower number is a better binder. Where no diploid with the target was found in that replicate, the entry reads "ND": below detection, most likely a poor binder, though not proof of it. Parent in this assay: reference entry 2.31, copy in this library 2.25. As a blank, each scFv also met three strains without target: over library AAYL52, 28% of these pairings were detected, typically at 3.91 and seldom below 2.90. For each scFv, signals with the empty controls are counted beside the result, with their mean in brackets.

changes,log10 Kd (nM) by replicate,signal with controls
G24A R28I D91A,5.45 5.02 ND,4 of 9 (3.89)
E23S L27A G94P,3.03 3.40 3.53,2 of 9 (3.85)
E23Y Y31M F95C,4.52 5.38 ND,2 of 9 (4.04)
D91Y S93Q Q96W,ND 3.04 ND,0 of 9
K50F S88K F98N,ND ND ND,0 of 9
G49M F98M,ND ND ND,3 of 9 (3.81)
P54Q S92H F95T,3.04 2.37 2.12,2 of 9 (3.07)
Y31A G49E S92G,2.61 2.66 2.28,3 of 9 (3.84)
D91E S92N F95L,2.74 3.15 2.69,1 of 9 (4.00)
Y30E Y31Q G94C,2.50 2.59 1.54,3 of 9 (3.75)
G24K R53W R90V,ND ND ND,1 of 9 (5.47)
L27I,2.26 2.36 1.96,3 of 9 (4.44)
N33M S93N,2.30 2.05 2.47,3 of 9 (4.22)
R28K S55T G94F,2.39 2.70 2.28,6 of 9 (3.98)
S26K Y30L K50W,ND 4.81 ND,4 of 9 (3.94)
Y29W A32P N33A,ND ND 3.09,2 of 9 (4.09)
A32N S92T F98V,2.21 2.44 2.40,4 of 9 (4.08)
S89V F95M V97S,2.72 2.95 2.16,5 of 9 (3.87)
G24M R90M F98E,ND 5.30 ND,2 of 9 (3.83)
R53Y V97C F98G,ND 4.19 3.46,4 of 9 (4.21)
Y31H N33T V97K,5.55 ND ND,4 of 9 (3.43)
Y29F S55H,2.13 2.33 2.06,6 of 9 (4.04)
S93T F95V V97H,2.94 2.66 1.68,3 of 9 (3.52)
E23W G49L S89D,4.96 3.81 4.40,1 of 9 (4.85)
G49H S92A S93M,4.76 ND ND,0 of 9
R53S D91V S92D,ND ND ND,2 of 9 (4.05)
D25F A32M S92F,3.55 3.93 ND,4 of 9 (3.84)
G24N S26M G49T,3.75 ND ND,3 of 9 (4.27)
E23K G24C D91F,2.96 3.23 3.00,2 of 9 (4.50)
Y31L R53S S89P,4.16 3.47 4.10,1 of 9 (3.44)
D25F K50W S92C,3.96 4.36 2.53,3 of 9 (3.78)
R28V N52W,3.26 2.70 1.99,1 of 9 (3.23)
D25V N51G R90F,ND ND ND,1 of 9 (3.72)
D25E S89I S92V,3.81 2.94 3.28,4 of 9 (3.94)
S26N K50R R53M,4.75 ND 4.33,2 of 9 (4.43)
G24R L27H A32W,ND ND ND,2 of 9 (3.83)

A selection of 6 entries from above:

changes	log10 Kd (nM) by replicate	signal with controls
R28K S55T G94F	2.39 2.70 2.28	6 of 9 (3.98)
P54Q S92H F95T	3.04 2.37 2.12	2 of 9 (3.07)
Y29F S55H	2.13 2.33 2.06	6 of 9 (4.04)
Y31L R53S S89P	4.16 3.47 4.10	1 of 9 (3.44)
E23S L27A G94P	3.03 3.40 3.53	2 of 9 (3.85)
L27I	2.26 2.36 1.96	3 of 9 (4.44)

Values reported by Engelhart et al. 2022, doi:10.1038/s41597-022-01779-4 (FLAb copy).